Assay results reported in EP3150574B1, “AMANTADINE NITRATE COMPOUND HAVING A NEUROPROTECTIVE EFFECT AND PREPARATION AND MEDICAL USE THEREOF” (Guangzhou Magpie Pharmaceuticals Co., Ltd., priority 2014, dated 2015).

Test system: primary cerebellum granule cells of rats
Assay: Protective effects of compounds on primary cerebellum granule cells against glutamate-induced excitotoxic injury (MTT cell viability)
Format: cell-based
Details: protective effect on rat's nerve cells, pre-protection 2 h, then for 24 h, absorbance at 570 nm

## CC12CC3CC(C)(C1)CC(N)(C3)C2 [memantine, reference compound]
  EC50: 2720 nM
